Here are results for one compound from patent EP1790655B1, “Biologically active peptides” (CMS Peptides Patent Holding Company Limited, priority 2001, dated 2003).

Assay [1] has as its system Sheep red blood cells (SRBC). The assay is described as follows: humoral immunity (SRBC hemolysis index) of mice bearing transplanted B16 melanoma. It is filed as in vivo, C57BL/6 mice. As to conditions: 20mg/kg i.p. once per day from the day after transplanting, SRBC on the 27th day.
The test system of the next assay is NK cell. The assay is described as follows: NK cell activity in mice with ascitic fluid type liver cancer H22. It is filed as in vivo, BALB/c mice. As to conditions: 20mg/kg i.p. once per day.
Another assay deals with T lymphocyte. The assay is described as follows: T lymphocyte transformation in mice with ascitic fluid type liver cancer H22. As to conditions: 20mg/kg i.p. once per day. Format: in vivo, BALB/c mice.
In the next assay the test system is mononuclear phagocyte. The assay is described as follows: phagocytotic function of mononuclear phagocyte in mice with S180 sarcoma. It is filed as in vivo, BALB/c mice. As to conditions: 20mg/kg i.p. once per day from the day after transplanting; transplanted S180 sarcoma.

On to `O=P1(N(CCCl)CCCl)NCCCO1` (stereo not shown) [Cyclo-phos phamide, Cyclophosphamide], for which, in assay [1], the Hemolysis index is reported as 20.7±19.1. Also, the NK activity index in the assay with NK cell worked out at 16.5±7.2 %. Moreover, in the assay with T lymphocyte, the Stimulation index was found to be 1.01±0.23. Also, the Phagocytosis index in the assay with mononuclear phagocyte turned out to be 5.92±2.47.
